Molecular target: T1, 5-HT2 receptors (Rattus norvegicus, UniProt P14842)
T1 construct: cortical tissue is dissected and weighed; from tissue; host or cells: cortex of male Wistar rats, crude membranes
Assay: Inhibition of 3H-ketanserin binding to 5-HT2 receptors in rat cortex in vitro
Settings: 3H-Ketanserin 0.5 nM, 37° C., 30 min, read-out: Receptor Binding, IC50 5-HT2 3H-Ket
Procedure: INHIBITION OF ^3 H-KETANSERIN BINDING TO 5-HT2 RECEPTORS IN RAT CORTEX IN VITRO
By this method the inhibition by drugs of the binding of ^3 H-Ketanserin (0,5 nM) to Serotonin S2 (5-HT2) receptors in membranes from rat is determined in vitro. Method in Hyttel, Pharmacology & Toxicology, 61, 126-129, 1987.
Male Wistar (Mol:Wist) rats (125-250 g) are sacrificed and cortical tissue is dissected and weighed. The tissue is homogenized (Ultra Turrax, 10 sec.) in 10 ml of ice-cold 50 mM tris buffer pH 7.7 (at 25° C.). The centrifuge glassware used in this step has been rinsed by sonication for 10 min. in ethanol. The homogenate is centrifuged twice at 20,000 g for 10 min. at 4° C. with rehomogenization of the pellet in 10 ml ice-cold buffer. The final pellet is homogenized in 500 vol (w/v) ice-cold buffer.
Incubation tubes kept on ice in triplicate receive 100 μl of drug solution in water (or water for total binding) and 2000 μl of tissue suspension (final tissue content corresponds to 4 mg original tissue). […] After shaking for 1 h and storage 2 hrs in the dark the content of radioactivity is determined by liquid scintillation counting. […]
The measured cpm are plotted against drug concentration on semilogarithmic paper and the best fitting S-shaped curve is drawn. […]

The chains behind the UniProt entries cited, without tags or fusion partners.
UniProt P14842, whole entry: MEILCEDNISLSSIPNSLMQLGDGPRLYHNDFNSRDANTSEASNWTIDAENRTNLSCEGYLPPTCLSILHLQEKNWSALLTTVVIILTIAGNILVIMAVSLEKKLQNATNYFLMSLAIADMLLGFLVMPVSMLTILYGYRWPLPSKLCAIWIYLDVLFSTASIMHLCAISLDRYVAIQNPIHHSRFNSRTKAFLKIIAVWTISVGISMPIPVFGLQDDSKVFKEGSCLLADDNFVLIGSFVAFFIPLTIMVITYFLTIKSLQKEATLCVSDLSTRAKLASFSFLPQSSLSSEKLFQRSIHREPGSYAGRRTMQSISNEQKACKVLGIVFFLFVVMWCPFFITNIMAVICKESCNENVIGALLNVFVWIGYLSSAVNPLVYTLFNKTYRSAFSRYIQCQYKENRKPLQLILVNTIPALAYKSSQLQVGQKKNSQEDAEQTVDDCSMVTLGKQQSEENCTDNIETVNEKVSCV

## Cc1nc2sccn2c(=O)c1CCN1CCC(=C(c2ccc(F)cc2)c2ccc(F)cc2)CC1 [Ritanserin, reference compound]
  IC50: 0.4 nM

Source: patent publication US5643784A, “Indan derivatives” (H, Lundbeck A/S, priority 1990, dated 1997)
